From US8338422B2, “Indolin-2-ones and aza-indolin-2-ones” (Janssen Pharmaceutica NV, priority 2007, dated 2012)

Chains of the proteins cited; added tags and fusions are not shown.
UniProt Q96GD4, whole entry: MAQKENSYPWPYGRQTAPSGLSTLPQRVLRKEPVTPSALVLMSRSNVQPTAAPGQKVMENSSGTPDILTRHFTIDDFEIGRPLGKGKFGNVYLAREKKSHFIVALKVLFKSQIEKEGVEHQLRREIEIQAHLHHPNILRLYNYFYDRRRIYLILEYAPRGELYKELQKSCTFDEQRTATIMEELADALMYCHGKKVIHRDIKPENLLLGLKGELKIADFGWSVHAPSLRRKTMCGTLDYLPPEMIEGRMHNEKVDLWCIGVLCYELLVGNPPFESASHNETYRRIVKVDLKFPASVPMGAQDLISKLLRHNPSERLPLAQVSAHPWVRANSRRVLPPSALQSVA
UniProt P49841, whole entry: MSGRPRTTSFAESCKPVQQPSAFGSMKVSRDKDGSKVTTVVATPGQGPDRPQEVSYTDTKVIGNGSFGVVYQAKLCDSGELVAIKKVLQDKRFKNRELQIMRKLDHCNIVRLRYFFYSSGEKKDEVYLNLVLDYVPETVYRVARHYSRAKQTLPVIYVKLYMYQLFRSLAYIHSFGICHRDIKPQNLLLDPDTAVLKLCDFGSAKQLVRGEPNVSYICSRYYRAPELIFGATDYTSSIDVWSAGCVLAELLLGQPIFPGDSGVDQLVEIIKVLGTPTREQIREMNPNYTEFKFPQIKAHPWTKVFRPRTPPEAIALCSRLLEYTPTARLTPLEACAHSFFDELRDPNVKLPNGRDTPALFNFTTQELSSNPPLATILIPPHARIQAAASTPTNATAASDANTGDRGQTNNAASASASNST
UniProt O00444, whole entry: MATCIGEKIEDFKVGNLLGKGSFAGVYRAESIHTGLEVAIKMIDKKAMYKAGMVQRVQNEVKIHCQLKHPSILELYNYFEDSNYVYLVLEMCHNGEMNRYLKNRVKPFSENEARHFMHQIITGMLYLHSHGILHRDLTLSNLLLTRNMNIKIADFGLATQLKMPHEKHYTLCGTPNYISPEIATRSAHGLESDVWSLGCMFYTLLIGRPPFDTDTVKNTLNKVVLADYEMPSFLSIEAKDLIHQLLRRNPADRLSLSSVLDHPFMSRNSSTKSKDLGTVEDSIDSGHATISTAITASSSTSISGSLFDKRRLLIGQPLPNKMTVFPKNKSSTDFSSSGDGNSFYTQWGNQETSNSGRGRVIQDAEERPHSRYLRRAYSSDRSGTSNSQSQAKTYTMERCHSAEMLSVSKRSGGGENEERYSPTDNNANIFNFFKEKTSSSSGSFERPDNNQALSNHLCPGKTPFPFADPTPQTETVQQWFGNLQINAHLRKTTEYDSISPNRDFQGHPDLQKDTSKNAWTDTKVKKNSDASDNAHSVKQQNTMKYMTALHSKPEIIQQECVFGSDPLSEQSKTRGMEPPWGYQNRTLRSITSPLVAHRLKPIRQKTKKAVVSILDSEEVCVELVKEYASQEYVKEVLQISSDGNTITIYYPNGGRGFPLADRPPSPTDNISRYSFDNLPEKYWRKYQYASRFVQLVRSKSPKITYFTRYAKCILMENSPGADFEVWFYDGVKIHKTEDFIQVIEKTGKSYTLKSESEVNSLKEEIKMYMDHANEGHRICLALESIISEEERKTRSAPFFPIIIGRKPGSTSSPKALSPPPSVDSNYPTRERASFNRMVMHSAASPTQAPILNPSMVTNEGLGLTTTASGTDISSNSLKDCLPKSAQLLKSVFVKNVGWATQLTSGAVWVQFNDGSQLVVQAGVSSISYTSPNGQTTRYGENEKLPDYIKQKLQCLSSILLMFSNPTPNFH
UniProt P06493, whole entry: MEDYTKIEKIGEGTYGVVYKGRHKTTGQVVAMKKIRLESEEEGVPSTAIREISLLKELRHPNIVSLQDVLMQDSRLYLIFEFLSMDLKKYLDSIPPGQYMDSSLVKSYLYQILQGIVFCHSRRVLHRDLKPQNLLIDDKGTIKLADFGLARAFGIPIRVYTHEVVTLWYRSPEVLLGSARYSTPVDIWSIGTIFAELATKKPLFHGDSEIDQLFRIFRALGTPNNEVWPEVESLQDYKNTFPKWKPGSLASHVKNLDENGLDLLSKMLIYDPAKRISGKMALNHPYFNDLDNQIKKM
UniProt P14635, whole entry partner: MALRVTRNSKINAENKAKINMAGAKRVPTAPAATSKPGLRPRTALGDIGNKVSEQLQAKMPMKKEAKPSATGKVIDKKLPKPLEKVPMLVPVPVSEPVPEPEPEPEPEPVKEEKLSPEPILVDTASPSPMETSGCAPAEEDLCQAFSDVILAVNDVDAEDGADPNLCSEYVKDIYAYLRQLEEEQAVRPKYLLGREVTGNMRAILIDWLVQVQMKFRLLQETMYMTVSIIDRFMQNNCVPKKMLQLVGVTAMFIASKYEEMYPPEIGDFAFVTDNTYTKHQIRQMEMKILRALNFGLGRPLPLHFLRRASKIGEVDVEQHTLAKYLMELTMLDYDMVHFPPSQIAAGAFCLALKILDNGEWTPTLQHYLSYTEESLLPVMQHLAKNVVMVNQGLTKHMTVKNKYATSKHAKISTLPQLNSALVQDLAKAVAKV

Columns and labels:
AuroraB (h) = AuroraB (h) (Homo sapiens, UniProt Q96GD4); test: Aurora-B human kinase assay (SPA)
Experimental: (§1) The in vitro inhibition of a panel of kinases was assessed using either the scintillation proximity assay (SPA) as described by Cook, N. D. et al., Advances in Experimental Medicine and Biology (1991), 36; p. 525-528; or the Fluorescence Resonance Energy Transfer (FRET) technology as described by Rodems, S. M. et al., Assay Drug Develop. Technol. (2002), 1; p. 9-19.
(§2) In the SPA technology the activity of the kinase of interest is measured using an appropriate biotinylated substrate that is incubated with the aforementioned kinase protein in the presence of (^33P) radiolabeled ATP. (^33P) Phosporylation of the substrate is subsequently measured through binding of the phosphorylated substrate to streptavidine coated beads that are based on the scintillant poly(vinyl toluene) (PVT-Beads). The scintillation intensity is detected by imaging on Leadseeker.
(§3) All kinases are pre-diluted to a 10× working concentration prior to addition into the assay. The composition of the dilution buffer for each kinase is detailed below.
In a final reaction volume of 30 μl, AuroraB (h) (0.5 μg/ml) is incubated with 60 mM Hepes pH 7.5, 3 mM MgCl2, 3 mM MnCl2, 3 μM Na3VO4, 0.05 mg/ml PEG, 2 mM DTT, 3 μM Biotin-[…]-OH, 0.5 μM ATP and 2.2 nM [γ-^33P-ATP] (6.8 μCi/ml). After incubation of 60 minutes at room temperature, the reaction is stopped by addition of 40 μL of stop solution containing 8.7 mM EDTA, BSA 0.17%, 0.17% Triton X-100, 5 mg/ml SPA beads (GE-healthcare). The plate is centriguged and read for Scintillation imaging on Leadseeker.

GSK3β (h) = GSK3β (h) (Homo sapiens, UniProt P49841); test: GSK-3β human kinase assay (SPA)
Experimental: as §1, §2, §3
In a final reaction volume of 30 μl, GSK3β (h) (1 μg/ml) is incubated with 25 mM Tris pH 7.4, 10 mM MgCl2, 1 mM DTT, 1 μM peptide Biotin-KRREILSRRPSYR-OH, 1 μM ATP and 2 nM [γ-^33P-ATP] (6.0 μCi/ml). After incubation of 60 minutes at room temperature, the reaction is stopped by addition of […] of stop solution containing 8.7 mM EDTA, BSA 0.17%, 0.17% Triton X-100, 6.25 mg/ml SPA beads (GE-healthcare). The plate is centriguged and read for Scintillation imaging on Leadseeker.

PLK4 (h) = PLK4 (h) (Homo sapiens, UniProt O00444); test: PLK-4 human kinase assay (SPA)
Experimental: as §1, §2, §3
In a final reaction volume of 30 μl PLK4 (h) (19 μg/ml) is incubated with 50 mM Hepes pH 8.0, 10 mM MgCl2, 50 mM NaCl, 1 mM NaF, 1 mM DTT, 10 μM of peptide Biotin-RPRGQRDSSYYWE-OH, 1 μM ATP and 2 nM [γ-^33P-ATP] (6.0 μCi/ml). After incubation of 60 minutes at room temperature, the reaction is stopped by addition of 40 μl, of stop solution containing 8.7 mM EDTA, BSA 0.17%, 0.17% Triton X-100, 1.7 mg/ml SPA beads (GE-healthcare). The plate is centriguged and read for Scintillation imaging on Leadseeker.

CDK1/CyclinB (h) = CDK1/CyclinB (h) (Homo sapiens, UniProt P06493); test: CDK1/CyclinB human kinase assay (FRET)
Experimental: as §1
In the FRET technology the activity of the kinase of interest is measured using an appropriate substrate that is labeled with two fluorophores (coumarin and fluorescein). Phosphorylation is determined using a developing reagent comprising a protease that recognizes and cleaves nonphosphorylated peptides. Cleavage will disturb the FRET between the fluorescein and coumarin on the peptide. Uncleaved, phosphorylated peptides maintain the FRET signal. A ratiometric readout of the donor emission over the acceptor emission quantitates the reaction process.
as §3
In a final reaction volume of 10 μl, CDK1/CyclinB (h) (0.2 μg/ml) is incubated with 50 mM Hepes pH 7.5, 10 mM MgCl2, 1 mM EGTA, 0.01% Brij-35, 2 μM Z'lyte Ser/Thr peptide 12 and 10 μM ATP (Invitrogen's FRET assay). After incubation of 60 minutes at room temperature, the reaction is stopped by addition of 5 μL development reagent containing protease mix. After 60 minutes room temperature the development reaction is stopped by adding 5 μl stop solution. The plate is then read in fluorescence plate reader with excitation: 390 nm and dual emission: 460 and 538 nm. Emission ratio is determined to the formula=Emission signal intensity at 460 nm/Emission signal intensity at 538 nm.

A2780 = test: Cellular proliferation assay (Alamar blue), A2780; details: A2780 cells, 72 hours with compound, 10% FCS
Experimental: (§4) […] functional properties of these compounds was tested in cellular proliferation assays on a panel of different cell lines in the presence of 10% FCS serum (37° C. and 5% (v/v) CO2). In a first step these cells were seeded and incubated for 24 hours in the absence of compound. In the second step the cells were incubated for 72 hours with the compounds to be tested for 72 hours. The viable cell number was finally assessed in a standard Alamar blue cell viability assay.
(§5) The viable cell number was assessed by incubation for either 4 h (HCT-116, H1299, H460) 6 h (SKOV3, HT29, U87-MG, Colo205) or 24 h (A2780, PC3, MDA-MB-231, A549, MCF-7) with Alamar blue (Resazurin 9 μg/ml, K-Ferrocyanide 90 μM K-Ferricyanide 90 μM) and the converted fluorescent product was quantified on a fluorescent plate readed (544 nm/590 nm). Effect of the compounds is calculated as of on control cells.

HCT-116 = test: Cellular proliferation assay (Alamar blue), HCT-116; details: HCT-116 cells, 72 hours with compound, 10% FCS
Experimental: as §4, §5

H1299 = test: Cellular proliferation assay (Alamar blue), H1299; details: H1299 cells, 72 hours with compound, 10% FCS
Experimental: as §4, §5

MDA/MB231 = test: Cellular proliferation assay (Alamar blue), MDA/MB231; details: MDA/MB231 cells, 72 hours with compound, 10% FCS
Experimental: as §4, §5

U87MG = test: Cellular proliferation assay (Alamar blue), U87MG; details: U87MG cells, 72 hours with compound, 10% FCS
Experimental: as §4, §5

PC-3 = test: Cellular proliferation assay (Alamar blue), PC-3; details: PC-3 cells, 72 hours with compound, 10% FCS
Experimental: as §4, §5

SKOV3 = test: Cellular proliferation assay (Alamar blue), SKOV3; details: SKOV3 cells, 72 hours with compound, 10% FCS
Experimental: as §4, §5

SMILES	AuroraB pIC50 (AuroraB (h))	GSK3B pIC50 (GSK3β (h))	PLK4 pIC50 (PLK4 (h))	CDK1 pIC50 (CDK1/CyclinB (h))	pIC50 A2780 (A2780)	pIC50 HCT-116 (HCT-116)	pIC50 H1299 (H1299)	pIC50 MDA/MB231 (MDA/MB231)	pIC50 U87MG (U87MG)	pIC50 PC-3 (PC-3)	pIC50 SKOV3 (SKOV3)
COc1ccc2cc1OCCCN(C)[C@H](CO)C(=O)NCCNc1ncnc3c1/C(=C/N2)C(=O)N3	6.03	5.76	–	–	–	–	–	–	–	–	–
CN1CCNc2ncnc3c2/C(=C/Nc2ccc(Cl)c(c2)OCCCN2C[C@H](O)C[C@@H]2C1=O)C(=O)N3	<5	5.45	–	–	–	–	–	–	–	–	–
CN1CCNc2ncnc3c2/C(=C/Nc2cccc(c2)OCCCN2C[C@H](O)C[C@@H]2C1=O)C(=O)N3	<5	–	–	–	–	–	–	–	–	–	–
COc1cc2cc(c1OC)OCC(=O)N(C)CCN(C)CCNc1ncnc3c1/C(=C/N2)C(=O)N3	5.28	<5	5.35	<5	<5	<5	<5	<5	<5	<5	–
COc1ccc2cc1CN(C)CC(=O)N(C)CCN(C)CCNc1ncnc3c1/C(=C/N2)C(=O)N3	<5	6.24	5.2	<5	<5	<5	5.03	<5	<5	<5	–
COCCN1CCOc2cc(ccc2Cl)N/C=C2\C(=O)Nc3ncnc(c32)NCCN(C)C(=O)C1	–	6.02	–	–	–	–	–	–	–	–	–
CN1CCCNc2ncnc3c2/C(=C/Nc2cccc(c2)OCC(=O)N[C@H](Cc2ccccc2)C1)C(=O)N3 [Compound 176]	<5	5.31	5.93	–	<5	<5	<5	<5	<5	<5	–
COCCN1CCCOc2cc(ccc2Cl)N/C=C2\C(=O)Nc3ncnc(c32)NCCNC(=O)C1	4.99	5.77	–	–	–	–	–	–	–	–	–
COCCN1CCOc2cccc(c2)N/C=C2\C(=O)Nc3ncnc(c32)NCCNC(=O)C1	5.25	6.08	–	–	–	–	–	–	–	–	–
COCCN1CCOc2cc(ccc2OC)N/C=C2\C(=O)Nc3ncnc(c32)NCCN(C)C(=O)C1	5.61	5.91	–	–	–	–	–	–	–	–	–
CN1CCCNc2ncnc3c2/C(=C/Nc2cccc(c2)OCCN2C[C@H](O)C[C@@H]2C1=O)C(=O)N3	<5	5.18	<5	–	–	–	–	–	–	–	–
CN1CCCNc2ncnc3c2/C(=C/Nc2ccc(Cl)c(c2)OCCN2C[C@H](O)C[C@@H]2C1=O)C(=O)N3	<5	–	–	–	–	–	–	–	–	–	–
COCCN1CCCOc2cccc(c2)N/C=C2\C(=O)Nc3ncnc(c32)N2CCN(CC2)C(=O)C1	<5	5.63 and 5.47	5.24 and 5.13	–	–	–	–	–	–	–	–
COc1ccc2cc1OCC(=O)N(C)CCN(C)CCNc1ncnc3c1/C(=C/N2)C(=O)N3	5.94	6.24	6.1	<5	<5	<5	<5	<5	<5	<5	–
CN1CCNc2ncnc3c2/C(=C/Nc2ccc(N4CCOCC4)c(c2)OCCCCC1=O)C(=O)N3	<5	6.275	6.585	<5	<5	<5	<5	<5	<5	<5	5.18
CN1CCNc2ncnc3c2/C(=C/Nc2ccc(N4CCOCC4)c(c2)OCCCCCC1=O)C(=O)N3	5.61	6.15	6.26	5.23	<5	<5	5.51	<5	<5	<5	<5
COCCN1CCCOc2cccc(c2)N/C=C2\C(=O)Nc3ncnc(c32)NCCNC(=O)C1	5.59 and 5.37	5.55 and 5.73	6.27 and 6.12	–	–	–	–	–	–	–	–
CN1CCCOc2cccc(c2)N/C=C2\C(=O)Nc3ncnc(c32)N2CCN(CC2)C(=O)[C@H]1CO	<5	6.37	<5	–	–	–	–	–	–	–	–
CN1CCOc2cccc(c2)N/C=C2\C(=O)Nc3ncnc(c32)N2CCN(CC2)C(=O)[C@H]1CO	<5	6.4	<5	–	–	–	–	–	–	–	–

“And” between values parts separate entries of the source, which are not always exact repeats. Identical values can stand only once.
